# Test results from US9649269B2, “Use of glycosaminoglycan lipoate esters in the trichology field” (SIGEA S.R.L., priority 2010, dated 2017).
# Test system: "endo" bovine testicular hyaluronidase
# Conditions: 1.0% w/w in acetate buffer, enzyme/polymer ratio 1:200, 37° C.
substance,measurement,value
Lipoic and Formic Ester of Hyaluronic Acid Sodium Salt [Example 1],resistance to enzymatic degradation,resists the enzymatic action longer than native HA
